# Data as given in ChEMBL document CHEMBL3797068, “eCF309: a potent, selective and cell-permeable mTOR inhibitor” (Medchemcomm, 2016).
# What was measured:
# [1] = species: Homo sapiens; assay: Selectivity ratio of IC50 for human BLK to IC50 for human mTOR
# [2] = species: Homo sapiens; assay: Selectivity ratio of IC50 for PI3Kgamma (unknown origin) to IC50 for human mTOR
# [3] = species: Homo sapiens; assay: Selectivity ratio of IC50 for human YES to IC50 for human mTOR
# [4] = species: Homo sapiens; assay: Selectivity ratio of IC50 for PI3Kbeta (unknown origin) to IC50 for human mTOR
# [5] = species: Homo sapiens; assay: Selectivity ratio of IC50 for human RET to IC50 for human mTOR
# [6] = species: Homo sapiens; assay: Selectivity ratio of IC50 for human SRC to IC50 for human mTOR
# [7] = species: Homo sapiens; assay: Selectivity ratio of IC50 for human DNA-PK to IC50 for human mTOR
# [8] = species: Homo sapiens; assay: Selectivity ratio of IC50 for human FYN to IC50 for human mTOR
# [9] = species: Homo sapiens; assay: Selectivity ratio of IC50 for PI3Kdelta (unknown origin) to IC50 for human mTOR
# [10] = species: Homo sapiens; assay: Selectivity ratio of IC50 for human KIT to IC50 for human mTOR
# [11] = species: Homo sapiens; assay: Selectivity ratio of IC50 for human PDGFRalpha to IC50 for human mTOR
# [12] = species: Homo sapiens; assay: Selectivity ratio of IC50 for human ABL to IC50 for human mTOR
# [13] = species: Homo sapiens; assay: Selectivity ratio of IC50 for PI3Kalpha (unknown origin) to IC50 for human mTOR
# [14] = species: Homo sapiens; assay: Selectivity ratio of IC50 for human DDR1 to IC50 for human mTOR
smiles,measurement,setting,value
CCOC(Cn1nc(-c2ccc3oc(N)nc3c2)c2c(N)ncnc21)OCC,Ratio IC50,[1],> 65
same,Ratio IC50,[2],> 65
same,Ratio IC50,[3],> 65
same,Ratio IC50,[4],> 65
same,Ratio IC50,[5],> 65
same,Ratio IC50,[6],> 65
same,Ratio IC50,[7],> 20
same,Ratio IC50,[8],> 65
same,Ratio IC50,[9],> 65
same,Ratio IC50,[10],> 65
same,Ratio IC50,[11],> 65
same,Ratio IC50,[12],> 65
same,Ratio IC50,[13],> 65
same,Ratio IC50,[14],> 65
